Compound activity as filed in PubChem BioAssay.
This is a sample that favours compounds with a hit; in the whole collection about 1.3% have one here.
Yeast UUG start: modulators of yeast start codon fidelity, primary screen, whole organism, S. cerevisiae, single point, plate reader; S. cerevisiae UUG-firefly luciferase reporter, luminescence/redox ratio; activity score, % at 18.7 µM; actives 0.13% (n = 350,000); AID 602363, 2012;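 active = replicate mean at a twofold rise or more, about +100% in these data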;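 also: firefly luciferase made from a UUG start codon reports start codon fidelity; reporter light over untreated wells divided by growth signal over untreated wells; some hits fall short of that in this replicate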
SR-BI DiI inh: mouse SR-BI HDL lipid transfer inhibition; Q61009; ldlA[mSR-BI] CHO cells, DiI-HDL uptake fluorescence, 3 h; inhibition, % at 12.5 µM; 320,000 compounds, 0.96% hits; AID 488896;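 active = mean replicate inhibition of at least 70% and a set share of replicates each scoring 70 or more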;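 note: 0% = median of neutral control wells and 100% = median of positive control wells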
GSIS activator: primary screen for activators of insulin secretion dependent on glucose, INS-1E cells, GLuc reporter luminescence; INS-1E GLuc reporter insulin secretion, 2-3 h; activation, % at 16.6 µM; 370,000 compounds, 0.61% hits;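 active = lowest replicate activation of at least 40%, so every replicate reaches that level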;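 note: 0% = median of neutral control wells and 100% = median of IBMX positive control wells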
SR-BI uptake up: activators of SR-BI mediated HDL lipid uptake. CHO ldlA[mSR-BI] cells, DiI-HDL uptake fluorescence, 3 h; 100 = double the neutral-control signal. activation, % at 12.5 µM. 320,000 compounds, 0.096% hits;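 active = mean replicate activation of at least 60% and every replicate at or above 60%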;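 note: 0% = median plate neutral-control signal and 100% = twice that signal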
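system = CHO ldlA[mSR-BI] cells, LDL receptor-null, SR-BI overexpressing | medium = Ham's F12 with 0.5% BSA, HEPES 25 mM, pH 7.4 | probe or stimulus = DiI-HDL 10 µg/mL | compound dosing = single-point compound dose | incubation = compound exposure 3 h, 37 °C | technique = DiI fluorescence, bottom read | read-out = cell-associated DiI fluorescence as measure of HDL uptake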
Starred values were filed as active, the others as inactive; / = not tested or not shown.

SR-BI DiI inh | Yeast UUG start | Molecule | SR-BI uptake up | GSIS activator
/ | -19.8 | COc1ccc(NC(=O)N(C)C[C@H]2OCCCC[C@H](C)Oc3ccc(NS(=O)(=O)c4cn(C)cn4)cc3C(=O)N([C@@H](C)CO)C[C@@H]2C)cc1 | / | 3.0
/ | -3.1 | Cc1ccc(S(=O)(=O)N[C@H]2CC[C@H](CC(=O)NCc3ccc(Cl)c(Cl)c3)O[C@H]2CO)cc1 | / | -20.9
/ | -12.7 | O=C(O)C[C@H]1CC[C@H](NC(=O)Nc2ccccc2)[C@@H](CO)O1 | / | -3.6
/ | -6.7 | C[C@H](CO)N1C[C@H](C)[C@@H](CN(C)C)Oc2ncc(-c3cccnc3)cc2C1=O | / | /
-18.7 | -23.0 | COc1cc(C(=O)C(=O)c2ccc(O)c(OC)c2)ccc1O | 18.7 | 42.6*
/ | -6.0 | C[C@H](CO)N1C[C@H](C)[C@H](CN(C)C)Oc2ccc(NC(=O)Cn3cnnn3)cc2CC1=O | / | 22.7
-25.1 | 335.2* | COc1ccc(C2CC(C(F)(F)F)n3nc(C(=O)O)c(Cl)c3N2)cc1OC (stereo unspecified) | 25.1 | /
71.7* | -5.9 | CCOC(=O)C1=C(c2ccccc2)NC(=S)NC1C (stereo unspecified) | -71.7 | /
-11.9 | -33.9 | O=C(O)c1c(NC(=O)N2CCOCC2)sc2c1CCCC2 | 11.9 | 62.3*
-26.5 | / | CCCCCCc1c(C)[nH]c2nc3ccccc3n2c1=O | 26.5 | -4.3
-410.4 | -21.7 | CCCCC(CC)C(=O)Nc1cc(=O)[nH]c2nc3ccccc3n12 (stereo unspecified) | 410.4* | 5.6
/ | / | CCC(=O)N1CC2(C1)[C@H](c1ccc(-c3cccc(F)c3)cc1)[C@H](CO)N2CC1CC1 | / | 3.1
/ | / | COc1cc2ccc(CC(=O)O)cc2cc1OC | / | 77.2*
/ | -11.1 | C[C@H](NC(=O)C[C@H]1CC[C@H](NC(=O)C2CCOCC2)[C@H](CO)O1)c1ccccc1 | / | 1.5
5.4 | -19.3 | CN=C1c2ccccc2CN1c1cccc(C(=O)OC)c1 | -5.4 | 88.6*
0.6 | -2.0 | COC(=O)c1cccc(N2C(=O)c3ccccc3S2(=O)=O)c1 | -0.6 | /
-20.9 | / | CCOC(=O)Cc1csc(/N=C/c2c(O)n(-c3ccc(C)c(C)c3)c(=O)c3ccccc23)n1 | 20.9 | 42.2*
/ | / | Cc1cc(N=Cc2c(O)n(-c3ccc(C)c(C)c3)c(=O)c3ccccc23)no1 | / | -6.0
/ | -5.8 | O=C(N[C@H]1C=C[C@H](CC(=O)N2CCCCC2)O[C@H]1CO)c1ccccn1 | / | 10.2
-9.4 | / | CSc1nc(N(C)C)nc(N2CC(=O)N(CCNS(=O)(=O)c3ccc(C)cc3)C2=N)n1 | 9.4 | 40.2*
38.0 | -6.5 | Cc1nc(N2CCN(C)CC2)c2c(C)c(C(=O)Nc3ccc(C)c(F)c3)sc2n1 | -38.1 | -16.3
77.4* | -14.0 | Cc1nc(N2CCCCC2)c2c(C)c(C(=O)Nc3ccc4c(c3)OCCO4)sc2n1 | -77.4 | -13.5
86.7* | / | Cc1nc(N2CCC(C)CC2)c2c(C)c(C(=O)Nc3ccc(C)c(F)c3)sc2n1 | -86.7 | -1.7
71.2* | -0.2 | Cc1cccc(N=Nc2c(N)n[nH]c2-c2ccc(Cl)cc2)c1 | -71.2 | /
83.6* | -4.9 | Cc1ccc(-c2[nH]nc(N)c2N=Nc2cccc(Cl)c2C)cc1 | -83.6 | /
-1.8 | / | COC(=O)c1ccccc1N=Nc1c(N)n[nH]c1N | 1.8 | -3.7
-12.9 | -9.6 | Cc1ccc(N=Nc2c(N)n[nH]c2N)cc1 | 12.9 | 9.3
75.9* | -21.7 | Cc1ccc(-c2[nH]nc(N)c2N=Nc2ccccc2C)cc1 | -75.9 | /
/ | / | Cc1noc(C)c1NC(=O)Nc1cccc2c1O[C@@H](CN(C)S(=O)(=O)c1ccccc1)[C@H](C)CN([C@H](C)CO)C2=O | / | 7.3
/ | -10.2 | Cc1ccccc1S(=O)(=O)N1CC[C@@H]2[C@H](CO)N(C)c3ccc(C#Cc4ccc(F)cc4)cc3[C@@H]21 | / | 1.3
/ | 10.7 | C[C@H](CO)N1C[C@H](C)[C@@H](CN(C)C(=O)C2CCC2)Oc2ncc(-c3cccc(F)c3)cc2C1=O | / | 3.8
/ | 3.2 | COCC(=O)N1C[C@@H](C)[C@@H](OC)CN(C)C(=O)c2cc(NC(=O)c3cnccn3)ccc2OC[C@H]1C | / | 8.4
-1.2 | -21.9 | CCCc1nc2sc3c(SCC(=O)NCc4ccco4)ncnc3c2c2c1CCC2 | 1.2 | 61.1*
/ | 1.4 | C[C@@H]1CCCCO[C@@H](CN(C)C(=O)Nc2ccccc2)[C@@H](C)CN([C@H](C)CO)C(=O)c2cc(NC(=O)Nc3ccc4c(c3)OCO4)ccc2O1 | / | 5.3
81.9* | -10.2 | N#Cc1c(NC(=O)CSC2=NCCS2)sc2c1CCCC2 | -81.9 | /
67.5 | -14.6 | Cc1ccc(C(=O)Nc2sc3c(c2C#N)CCCCC3)cc1C | -67.5 | 3.2
75.4* | -13.6 | NC(=O)c1c(NC(=O)c2ccc(N3C(=O)CCC3=O)cc2)sc2c1CCCC2 | -75.4 | 5.6
78.5* | -25.4 | N#Cc1c(NC(=O)c2ccccc2)sc2c1CCCCC2 | -78.5 | /
80.1* | / | N#Cc1c(NC(=O)/C=C/c2ccco2)sc2c1CCCC2 | -80.1 | /
/ | / | O=C(C[C@H]1C=C[C@@H](NC(=O)c2ccc3c(c2)OCO3)[C@@H](CO)O1)NCc1ccc(Oc2ccccc2)cc1 | / | -19.8
/ | / | CNC[C@@H]1OCCCC[C@@H](C)Oc2ccc(NS(C)(=O)=O)cc2C(=O)N([C@@H](C)CO)C[C@H]1C | / | 18.5
/ | 11.9 | COc1ccc(S(=O)(=O)N(C)C[C@@H]2OCCCC[C@@H](C)Oc3ccc(NS(=O)(=O)c4c(C)noc4C)cc3C(=O)N([C@@H](C)CO)C[C@H]2C)cc1 | / | -24.7
87.5* | -2.6 | COc1cccc(NC(=O)c2ccnc(N3CCC(C(=O)NCc4ccccc4OC)CC3)c2)c1 | -87.5 | -4.7
85.3* | -11.2 | CCCCN1C2=C(C(=O)CCC2)C(c2ccc(Cl)c(Cl)c2)C2=C1c1ccccc1C2=O (stereo unspecified) | -85.3 | /
-13.4 | 5.0 | CCCN1C(=O)c2ccccc2NC1c1ccc(Cl)c(Cl)c1 (stereo unspecified) | 13.4 | -20.1

Grouped by structure, those above with an aryl methoxy group
SR-BI DiI inh | Yeast UUG start | Molecule | SR-BI uptake up | GSIS activator
/ | -19.8 | COc1ccc(NC(=O)N(C)C[C@H]2OCCCC[C@H](C)Oc3ccc(NS(=O)(=O)c4cn(C)cn4)cc3C(=O)N([C@@H](C)CO)C[C@@H]2C)cc1 | / | 3.0
-18.7 | -23.0 | COc1cc(C(=O)C(=O)c2ccc(O)c(OC)c2)ccc1O | 18.7 | 42.6*
-25.1 | 335.2* | COc1ccc(C2CC(C(F)(F)F)n3nc(C(=O)O)c(Cl)c3N2)cc1OC (stereo unspecified) | 25.1 | /
/ | / | COc1cc2ccc(CC(=O)O)cc2cc1OC | / | 77.2*
/ | 11.9 | COc1ccc(S(=O)(=O)N(C)C[C@@H]2OCCCC[C@@H](C)Oc3ccc(NS(=O)(=O)c4c(C)noc4C)cc3C(=O)N([C@@H](C)CO)C[C@H]2C)cc1 | / | -24.7
87.5* | -2.6 | COc1cccc(NC(=O)c2ccnc(N3CCC(C(=O)NCc4ccccc4OC)CC3)c2)c1 | -87.5 | -4.7

Other compounds follow:
SR-BI DiI inh | Yeast UUG start | Molecule | SR-BI uptake up | GSIS activator
6.1 | -15.5 | Cc1cccc(Nc2nc(N)c(C#N)c(CC#N)c2C#N)c1 | -6.1 | 84.0*
13.2 | -16.7 | Cc1cccc(Nc2nc(C)cc(C)c2C#N)c1 | -13.2 | -4.2
-7.5 | 1.0 | CCN(C[C@H]1N[C@@](CC)(C(=O)OC)[C@H]2C(=O)N(C)C(=O)[C@@H]12)S(=O)(=O)c1ccc(OC)cc1 | 7.5 | 52.1*
-8.3 | -1.0 | CCN(C[C@H]1N[C@@](CC)(C(=O)OC)[C@H]2C(=O)N(C)C(=O)[C@@H]12)S(=O)(=O)c1ccc(-c2ccccc2)cc1 | 8.3 | -2.5
/ | 7.0 | C[C@@H]1CN([C@@H](C)CO)S(=O)(=O)c2ccc(/C=C/c3ccccc3)cc2O[C@@H]1CN(C)C(=O)CN1CCOCC1 | / | 4.3
86.7* | / | Oc1ccccc1N=Nc1ccccc1O | -86.7 | 4.5
/ | / | C[C@H]1CN([C@@H](C)CO)C(=O)Cc2cc(NC(=O)Nc3ccc4c(c3)OCO4)ccc2O[C@@H]1CN(C)S(C)(=O)=O | / | -3.2
-169.1 | / | Cc1c(CNCCc2ccccc2Cl)c(C(=O)O)c(C)n1-c1ccccc1 | 169.1* | -1.0
-15.7 | / | Cc1c(CNCCc2ccc(Cl)cc2)c(C(=O)O)c(C)n1Cc1ccccc1 | 15.7 | 3.5
